From article PMC12509120, “Complex Investigation of the Similarities and Differences between Ten Commercially Available Human Serum Albumin Preparations” (ACS Omega, 2025)

How the values were obtained:
[1] = Fluorescence quenching of HSA by heme site marker biliverdin; type: binding; conditions: HSA 2 μM; for Stern–Volmer quenching constant K SV, biliverdin–HSA complex: PBS pH 7.4, λex 295 nm, mean ± SD; for Quenching effect of biliverdin on the emission signal of albumin: ligand 0–6 μM, relative to other albumins
Experimental: (§1) Fluorescence measurements were performed with a Hitachi F-4500 fluorescence spectrophotometer (Tokyo, Japan) at room temperature. Emission spectra of HSA solutions were recorded using 295 nm excitation wavelength. In quenching studies, increasing levels (final concentrations: 0, 1, 2, 3, 4, 5, and 6 μM) of site I (furosemide and iodipamide), site II (diazepam and ketoprofen), or heme site (biliverdin and methyl orange) markers were added to albumin (2 μM), and then their quenching effects were evaluated at 340 nm. After background correction, the inner-filter effects of ligands were also corrected based on the following equation: Icor=Iobs×10^(Aex+Aem)/2 where I cor and I obs are the corrected and observed fluorescence emission signals at 340 nm, respectively. Furthermore, A ex and A em are the absorbance values of the site markers applied at 295 and 340 nm, respectively. Stern–Volmer quenching constants (K SV) were determined with linear fitting, employing the following equation: I0/I=1+KSV×[Q] where I 0 marks the fluorescence emission signal of HSA without the ligand, I denotes the emission intensity of HSA in the presence of the ligand, and [Q] is the molar concentration of the quencher.

[2] = Fluorescence emission spectra of HSA solutions; type: physicochemical
Experimental: as §1
Fig. S3: Fluorescence emission spectra of HSA3 (4 μM) in PBS, and the emission signals measured in the
filtrates and in the supernatant (λ ex = 295 nm), where samples were diluted according to the nominal 4 μM
albumin concentration. Each process described below was also performed with PBS (without the protein), where
In ultrafiltration experiments, a 500 μL volume of 20 μM HSA3 solutions (dissolved in PBS or in 25 v/v%
isopropanol–PBS mixture) were filtered (10 min, 7500 g, room temperature) using Amicon Ultra centrifugal
filters (30 kDa; Merck, Darmstadt, Germany). Thereafter, the filtrate was homogenized and diluted to fivefold
volume with PBS (final isopropanol level ≈ 5 v/v%).
In the other experiment, a 150 μL volume of 240 μM HSA3 solution (dissolved in PBS) was prepared, then 300
μL of acetonitrile was added. After intensive vortexing, the precipitated protein was removed by centrifugation
(10 min, 14,000 g, room temperature). Thereafter, the supernatant was diluted to 20-fold with PBS (final
acetonitrile level ≈ 3.3 v/v%).
(1 picture or pasted object on this page, not shown here)

[3] = Ultrafiltration with site II marker naproxen; type: binding; conditions: naproxen 1.0 μM, HSA 1.0 or 1.6 μM, PBS, 30 kDa filter
Experimental: (§2) In ultrafiltration experiments, we applied our previously reported models. , Briefly, Amicon Ultra centrifugal filters (30 kDa; Merck, Darmstadt, Germany) were washed once with water and once with PBS (each 500 μL). Then, samples (500 μL) were filtered for 10 min (centrifugation: 7500g, 25 °C, fixed angle rotor). Since HSA and albumin-bound molecules cannot pass through the filter with a 30 kDa cutoff value, HSA retains the bound ligand molecules, resulting in the decreased concentrations of site markers in the filtrate. , In the first experiment, the site I marker warfarin (1.0 μM) was filtered without and with HSA (3.5 or 6.0 μM). In the second experiment, the site II marker naproxen (1.0 μM) was filtered in the absence and presence of albumin (1.0 or 1.6 μM). After ultrafiltration, the concentrations of warfarin and naproxen were quantified in the filtrates with the previously described HPLC-FLD and HPLC-UV methods, respectively. ,

[4] = Total antioxidant capacity, luminol-based enhanced chemiluminescence microplate assay; type: biochemical; conditions: HSA solution 40 mg/mL in PBS, Trolox equivalent, compared between preparations
Experimental: The total antioxidant capacity (TAC) was assessed using a luminol-based enhanced chemiluminescence (ECL) microplate assay, as it has been earlier described. Briefly, a 20 μL of blank, standard, or sample (40 mg/mL HSA, dissolved in PBS) was pipetted into the wells of white 96-well microplates (6005290; Per-Form Hungaria Ltd., Budapest, Hungary). Subsequently, 270 μL of the POD-ECL solution was added and the plate was shaken for 10 s. ECL reaction was initiated by the automated injection of 20 μL of H2O2 solution (1.5 mM). The luminescence of the reaction was monitored for 10 min (with 64 s measurement intervals), applying a Biotek Synergy HT plate reader (Agilent, Santa Clara, California, USA). TAC values were calculated based on the total light output (area under the curve, AUC) of the standards (Trolox, 0–100 μM). TAC of the samples was determined as Trolox equivalent (TE) in μM using a calibration curve.

[5] = Fluorescence quenching of HSA by site II marker ketoprofen; type: binding; conditions: HSA 2 μM; for Stern–Volmer quenching constant K SV, ketoprofen–HSA complex: ketoprofen 0–6 μM, PBS pH 7.4, λex 295 nm, λem 340 nm, mean ± SD
Experimental: as §1

[6] = Fluorescence quenching of HSA by site I marker furosemide; type: binding; conditions: HSA 2 μM; for Stern–Volmer quenching constant K SV, furosemide–HSA complex: furosemide 0–6 μM, PBS pH 7.4, λex 295 nm, λem 340 nm, mean ± SD
Experimental: as §1

[7] = Fluorescence quenching of HSA by site I marker iodipamide; type: binding; conditions: for Stern–Volmer quenching constant K SV, iodipamide–HSA complex / K SV of iodipamide–HSA complex / Quenching effect of iodipamide on the emission signal of albumin: HSA 2 μM; for Stern–Volmer quenching constant K SV, iodipamide–HSA complex / K SV of iodipamide–HSA complex: iodipamide 0–6 μM, λem 340 nm; for Stern–Volmer quenching constant K SV, iodipamide–HSA complex: PBS pH 7.4, λex 295 nm, mean ± SD; for Quenching effect of iodipamide on the emission signal of albumin: ligand 0–6 μM, relative to other albumins
Experimental: as §1

[8] = Ultrafiltration with site I marker warfarin; type: binding; conditions: warfarin 1.0 μM, HSA 3.5 or 6.0 μM, PBS pH 7.4, 30 kDa filter
Experimental: as §2

[9] = Fluorescence quenching of HSA by site II marker diazepam; type: binding; conditions: HSA 2 μM; for Stern–Volmer quenching constant K SV, diazepam–HSA complex: diazepam 0–6 μM, PBS pH 7.4, λex 295 nm, λem 340 nm, mean ± SD
Experimental: as §1

[10] = Fluorescence quenching of HSA by heme site marker methyl orange; type: binding; conditions: HSA 2 μM; for Quenching effect of methyl orange on the emission signal of albumin: ligand 0–6 μM, relative to other albumins; for Stern–Volmer quenching constant K SV, methyl orange–HSA complex: methyl orange 0–6 μM, PBS pH 7.4, λex 295 nm, λem 340 nm, mean ± SD
Experimental: as §1

[11] = ligand 0–6 μM, relative to other albumins

| Substance | Stern–Volmer quenching constant K SV, biliverdin–HSA complex ([1]; biliverdin 0–6 μM, λem 340 nm) | Quenching effect of biliverdin on the emission signal of albumin [1] | Filtered concentration of naproxen in the presence of HSA [3] | Total antioxidant capacity [4] | Stern–Volmer quenching constant K SV, furosemide–HSA complex [6] | Stern–Volmer quenching constant K SV, iodipamide–HSA complex [7] | K SV of iodipamide–HSA complex [7] [L/mol] | Quenching effect of iodipamide on the emission signal of albumin [7] | Filtered fraction of warfarin in the presence of HSA [8] | Quenching effect of methyl orange on the emission signal of albumin [10] | Stern–Volmer quenching constant K SV, methyl orange–HSA complex [10] | Stern–Volmer quenching constant K SV, ketoprofen–HSA complex [5] | Stern–Volmer quenching constant K SV, diazepam–HSA complex [9] | other results |
| --- | --- | --- | --- | --- | --- | --- | --- | --- | --- | --- | --- | --- | --- | --- |
| HSA3: Human serum albumin preparation, Merck (Sigma-Aldrich) 126658, lot 3892542, lyophilized powder | 0.97 ± 0.06 × 10^–5 L/mol | moderately reduced | comparable changes | slightly lower antioxidant capacity | 0.23 ± 0.01 × 10^–5 L/mol | 0.55 ± 0.04 × 10^–5 L/mol | 55000 | considerably weaker decreases | very similar decreases | lowest impact | 0.25 ± 0.02 × 10^–5 L/mol |  |  | Emission peak in the filtrate after ultrafiltration ([2]; 30 kDa filter, in PBS, λex 295 nm): around 355 nm; Fluorescence emission wavelength maximum ([2]; HSA 2 μM in PBS pH 7.4, λex 295 nm): ~355 nm; Fluorescence emission signal ([2]; HSA 2 μM in PBS pH 7.4, λex 295 nm, compared between preparations): considerably stronger fluorescence; Quenching effect of ketoprofen on the emission signal of albumin [5, 11]: negligible decreases; Quenching effect of furosemide on the emission signal of albumin [6, 11]: lower quenching effects; Quenching effect of diazepam on the emission signal of albumin [9, 11]: negligible decreases |
| HSA8: Human serum albumin preparation, Merck (Sigma-Aldrich) A8763, lot SLCD9951, essential globulin free | 3.80 ± 0.32 × 10^–5 L/mol |  | comparable changes | slightly lower antioxidant capacity | 1.18 ± 0.06 × 10^–5 L/mol | 11.23 ± 0.32 × 10^–5 L/mol | 1.1e+06 | strongest quenching | very similar decreases |  | 0.70 ± 0.00 × 10^–5 L/mol | 0.39 ± 0.03 × 10^–5 L/mol | 0.23 ± 0.02 × 10^–5 L/mol | K SV of biliverdin–HSA complex ([1]; biliverdin 0–6 μM, λem 340 nm): 260000 to 380000 L/mol; K SV of iodipamide–HSA8 higher compared to iodipamide–HSA3 ([7]; ratio of K SV values): approximately 20 fold; K SV of iodipamide–HSA8 higher compared to iodipamide–HSA10 ([7]; ratio of K SV values): ~15 fold |
| HSA10: Human serum albumin preparation, Merck (Sigma-Aldrich) A9731, lot SLBL9344V, recombinant (expressed in rice) | 5.10 ± 0.13 × 10^–5 L/mol | somewhat stronger impacts | higher concentrations | the highest | 1.11 ± 0.08 × 10^–5 L/mol | 0.79 ± 0.01 × 10^–5 L/mol | 79000 | considerably weaker decreases | considerably higher | largest changes | 1.20 ± 0.00 × 10^–5 L/mol | 0.39 ± 0.00 × 10^–5 L/mol | 0.18 ± 0.01 × 10^–5 L/mol |  |
